Patent US11690897B2, “Salt inducible kinase inhibitors for enhancing fertility” (The Board of Trustees of the University of Illinois, priority 2019, dated 2023)

Columns and labels:
human granulosa cells = experiment: CYP19A1 protein (western blot) in granulosa cells of IVF patients with different etiologies; assay type: cell-based; conditions: FSH alone
Experimental: Primary granulosa cells were obtained from patients with normal ovarian function (left panel) or patients diagnosed with polycystic ovarian syndrome or anovulation (right panel). Cells were treated with vehicle, FSH, FSH plus HG-9-91-01 (HG), or HG alone for 48 hours. CYP19a1 and β-actin (BACT) protein levels were measured 48 hours after the initiation of treatment by western blot. The intensity of the CYP19a1 and BACT bands was quantified, and the data expressed as a ratio between aromatase and BACT. Different letters represent significant differences, one-way ANOVA followed by Tukey test, p<0.05, (n=5).
Human Granulosa Cells. Human cells were collected from the follicular aspirates of women undergoing in vitro fertilization treatment at the University of Illinois at Chicago Fertility Center, under Institute Review Board approval. Informed consents were obtained from all women. In a subset of patients, additional information was collected to compare the effect of SIK inhibition in patients with different etiologies. Cells were transported immediately to the laboratory where they were dispersed by hyaluronidase digestion (8 IU/μl) and then centrifuged at 500×g for 5 minutes. Cells were incubated at room temperature in red blood cell lysis buffer for 2 minutes to eliminate contaminating erythrocytes. The cells were again centrifuged at 500×g for 5 minutes and suspended in 0.5 ml of serum-free DMEM/F12-0.25% BSA medium containing antibiotics. To investigate mRNA expression, cells were plated at a density of 30000 cells/well in 24-well plates coated with reconstituted basement membrane sold under the tradename Matrigel® (DB Biosciences). To investigate protein expression, cells were plated at a density of 200000 cells/well in 6-well plates coated with reconstituted basement membrane sold under the tradename Matrigel® (DB Biosciences). […] Each data point reflects a result obtained from individual patients. Cells from each patient were cultured separately.
Immunoblot Analysis. Cells were harvested in ice-cold RIPA lysis buffer supplemented with protease inhibitors (Sigma). […]

[1] = system: CYP19a1 proximal promoter; experiment: CYP19a1 proximal promoter luciferase reporter in granulosa cells; assay type: cell-based; conditions: FSH alone vs no FSH
Text: To determine whether the effect of SIK inhibition on Cyp19a1 mRNA levels was mediated by an increase in the expression of the Cyp19a1 gene, granulosa cells were infected with a reporter controlled by the CYP19a1 proximal promoter. Luciferase activity was detectable but low in the absence of FSH while FSH stimulated reporter activity by 20-fold. […] Treatment with the SIK inhibitor alone increased Cyp19a1 promoter activity.

Substance: FSH: human recombinant FSH (Serono)
- CYP19A1 levels (human granulosa cells; patient with anovulation): stimulated CYP19A1 mRNA levels marginally
- CYP19A1 stimulation (human granulosa cells; patients with PCOS): unable to stimulate CYP19A1 in two of the three patients with PCOS
- CYP19A1 protein levels (human granulosa cells; patients with normal ovarian function): strongly increased CYP19A1 protein levels
- CYP19a1 promoter reporter (luciferase) activity, stimulation [1]: 20 fold
